Test results as given in PubChem BioAssay AID651965 (National Center for Advancing Translational Sciences (NCATS), 2013).
Only a part is listed here, and it is no random draw. Inconclusive results are not listed. The source made the active and inactive calls. Calls come from the whole dose curve; as a rule, active = well fitted falling curve with a large enough effect; inconclusive = small, poorly fitted or top-dose-only effect; inactive = no such curve, though single readings can be large or run the other way.

By UniProt entry, the sequences of proteins in these tests, tags left out.
UniProt P80244, whole entry: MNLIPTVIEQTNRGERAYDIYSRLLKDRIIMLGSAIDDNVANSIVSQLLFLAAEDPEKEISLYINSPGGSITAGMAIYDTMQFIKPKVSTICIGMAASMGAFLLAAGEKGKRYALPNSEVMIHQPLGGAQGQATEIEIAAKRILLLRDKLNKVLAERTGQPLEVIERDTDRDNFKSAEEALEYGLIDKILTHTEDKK

Biological target: ATP-dependent Clp protease proteolytic subunit (Bacillus subtilis (strain 168)) (UniProt P80244)
Test: qHTS Assay for Activators of ClpP; note: the source files actives as falling curves though it sought activators and does not explain the sign; nearly all actives have a fitted effect of over 65% in size
Details: purified B. subtilis ClpP, FRET peptide cleavage, 20 min; at 57.5 µM (top of the series)

| SMILES | activity change, negative = active |
| --- | --- |
| CCc1ccc(OP(C)(=O)Nc2cccnc2)cc1 (stereo unspecified) | inactive: -2.1% |
